Usually inhibition stands for the change of the read-out against control, counted positive when it falls.

In the first assay the target is T1, human recombinant NRH:quinone oxidoreductase (NQO2) (Homo sapiens, UniProt P16083).
T1 construct: purchased Sigma Q0380
T1 sequence (P16083 1-231): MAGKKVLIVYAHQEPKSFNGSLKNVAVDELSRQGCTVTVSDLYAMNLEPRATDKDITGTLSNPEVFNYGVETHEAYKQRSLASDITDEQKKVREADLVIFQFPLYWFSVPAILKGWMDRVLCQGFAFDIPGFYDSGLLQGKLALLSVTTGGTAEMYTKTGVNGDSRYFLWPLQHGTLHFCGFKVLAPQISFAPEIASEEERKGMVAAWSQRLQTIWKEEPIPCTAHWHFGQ
Description: biochemical. It is filed as biochemical. Particulars: inhibitor 0–25 µM, BNAH 9.375–150 µM. As to the method:
The inhibition activity of all synthesized compounds at a concentration of 10 µM was preliminarily tested in vitro using human recombinant NRH:quinone oxidoreductase (NQO2).
The activity of recombinant human NQO2 (Sigma #Q0380, St. Louis, […], USA) was evaluated kinetically using menadione and N-benzyl-dihydronicotinamide (BNAH) as the substrate and co-substrate, respectively. All reagents and test compounds were dissolved in 50 mM Hepes-KOH (pH 7.4) containing 1 mM of β-octyl-D-glucopyranoside, 0.1 mg/mL BSA and 1 μM FAD. […] Quercetin was used as a positive control. The solutions of the test compounds were pre-incubated for 5 min with 50 μL of human recombinant NQO2 (final concentration 42 ng/mL). Then, 25 μL of menadione was introduced at a final concentration of 100 μM. The reaction was started with 25 μL of 100 μM BNAH. The fluorescence of the co-substrate BNAH was followed at wavelengths of 370/440 nm at 37 °C using an Infinite M200 Pro microplate reader (Tecan, Grödig, Austria). The fluorescence data was fit according to a one-phase decay nonlinear regression to obtain slope values with Prism 8.0 (GraphPad Inc., San Diego, CA, USA). The activity in sample wells were normalized against negative control and enzyme-blank samples.
As to `CN1C(=O)C(=Cc2ccc(O)cc2)c2ccccc21` [Compound 15, 3-(4-hydroxybenzylidene)-N-methyl-2-oxindole], the “Mechanism of NQO2 inhibition” value is reported as “mixed-type (noncompetitive) inhibitor”.

The assay is the same for the next values; noted with them: read-out: NQO2 Inhibition, %.
For `O=C1Nc2ccc(NC(=O)c3ccccc3)cc2C1=Cc1ccc([N+](=O)[O-])cc1` (mixture of isomers) [Compound 29, 5-benzoylamino-3-((4-nitrophenyl)methylene)-2-oxindole], the inhibition at 10 µM came out at 21.8%.

As for `O=C1Nc2ccccc2/C1=C\c1ccccn1` [Compound 1, (E)-3-(2-pyridinylmethylidene)-2-oxindole], the inhibition at 10 µM amounted to 19.6%.

In the case of `CN1C(=O)C(=Cc2ccccn2)c2ccccc21` [Compound 2, N-methyl-3-((pyridin-2-yl)methylene)-2-oxindole], the inhibition at 10 µM was found to be 64.4%.

For `O=C1Nc2ccc(Br)cc2C1=Cc1ccccn1` [Compound 3, 5-bromo-3-(2-pyridinylmethylidene)-2-oxindole], the inhibition at 10 µM came out at 18.6%.

For `O=C1Nc2ccc([N+](=O)[O-])cc2C1=Cc1ccccn1` [Compound 4, 5-nitro-3-(2-pyridinylmethylidene)-2-oxindole], the inhibition at 10 µM came to 1.85%.

On to `CC(=O)Nc1ccc2c(c1)C(=Cc1ccccn1)C(=O)N2` [Compound 5, (E,Z)-3-(2-Pyridinylmethylidene)-5-acetamido-2-oxindole], for which the inhibition at 10 µM amounted to 46.4%.

Take `O=C1Nc2ccc([N+](=O)[O-])cc2C1=Cc1cccnc1` [Compound 9, 5-nitro-3-(3-pyridinylmethylidene)-2-oxidole]: the inhibition at 10 µM was 4.25%.

Turning to `O=C1Nc2ccccc2C1=Cc1ccncc1` [Compound 10, 3-(4-pyridinylmethylidene)-2-oxindole], the inhibition at 10 µM was determined as 27.3%.

Take `O=C1Nc2ccc([N+](=O)[O-])cc2C1=Cc1ccncc1` [Compound 12, 5-nitro-3-(4-pyridinylmethylidene)-2-oxindole]: the inhibition at 10 µM came out at 19.2%.

For `CC(=O)Nc1ccc2c(c1)C(=Cc1cccc(O)c1)C(=O)N2` [Compound 13, 3-(3-hydroxybenzylidene)-5-acetylamino-2-oxindole], the inhibition at 10 µM was determined as 89.1%.

As to `O=C1Nc2ccccc2C1=Cc1ccc(O)cc1` [Compound 14, 3-(4-hydroxybenzylidene)-2-oxindole], the inhibition at 10 µM came out at 31.7%.

`CN1C(=O)C(=Cc2ccc(O)cc2)c2ccccc21` [Compound 15, 3-(4-hydroxybenzylidene)-N-methyl-2-oxindole]: the inhibition at 10 µM came out at 98.9%.

As for `CC(=O)Nc1ccc2c(c1)C(=Cc1ccc(O)cc1)C(=O)N2` [Compound 16, (E,Z)-3-(4-Hydroxybenzylidene)-5-acetamido-2-oxindole], the inhibition at 10 µM came to 70.4%.

On to `COC(=O)Nc1ccc2c(c1)C(=Cc1ccc(O)cc1)C(=O)N2` [Compound 17, 3-(4-hydroxybenzylidene)-5-(methoxycarbonylamino)-2-oxindole], for which the inhibition at 10 µM was 93.6%.

Regarding `O=C1Nc2ccc(NC(=O)c3ccco3)cc2C1=Cc1ccc(O)cc1` [Compound 18, 3-(4-hydroxybenzylidene)-5-furoylamino-2-oxindole], the inhibition at 10 µM worked out at 96.4%.

For `COc1ccc(C=C2C(=O)Nc3ccc(NC(=O)c4ccccc4)cc32)cc1` [Compound 21, (E,Z)-3-(4-Methoxybenzylidene)-5-benzoylamino-2-oxindole], the inhibition at 10 µM was found to be 30.9%.

For `CCOc1ccc(/C=C2/C(=O)Nc3ccccc32)cc1` [Compound 22, (E)-3-(4-Ethoxybenzylidene)-2-oxindole], the inhibition at 10 µM was found to be 25.4%.

Turning to `COc1cc(C=C2C(=O)Nc3ccccc32)cc(OC)c1OC` [Compound 23, (E,Z)-3-(3,4,5-Trimethoxybenzylidene)-2-oxindole], the inhibition at 10 µM is 85.7%.

As for `COc1cc(C=C2C(=O)Nc3ccc(NC(C)=O)cc32)cc(OC)c1OC` [Compound 24, 3-(3,4,5-trimethoxybenzylidene)-5-acetylamino-2-oxindole], the inhibition at 10 µM is 92.8%.

On to `COc1cc(C=C2C(=O)Nc3ccc(NC(=O)c4ccco4)cc32)cc(OC)c1OC` [Compound 25, 3-(3,4,5-trimethoxybenzylidene)-5-furoylamino-2-oxindole], for which the inhibition at 10 µM was 91%.

Regarding `O=C1Nc2ccccc2C1=Cc1ccc([N+](=O)[O-])cc1` [Compound 27, 3-((4-nitrophenyl)methylene)-2-oxindole], the inhibition at 10 µM amounted to 4.66%.

In the case of `CN(C)c1ccc(C=C2C(=O)Nc3ccccc32)cc1` [Compound 30, (E,Z)-3-(4-Dimethylaminobenzylidene)-2-oxindole], the inhibition at 10 µM came to 27.3%.

Consider `COC(=O)Nc1ccc2c(c1)C(=Cc1ccc(Br)cc1)C(=O)N2` [Compound 32, 3-(4-bromobenzylidene)-5-(methoxycarbonylamino)-2-oxindole], for which the inhibition at 10 µM turned out to be 95.5%.

With `O=C1Nc2ccc(Br)cc2C1=Cc1ccco1` [Compound 35, 5-bromo-3-(2-furylmethylidene)-2-oxindole], the inhibition at 10 µM is -15.2%.

With `O=C1Nc2ccc(Br)cc2C1=Cc1cccs1` [Compound 38, 5-bromo-3-(2-thienylmethylidene)-2-oxindole], the inhibition at 10 µM is 29.9%.

With `CCOC(=O)c1[nH]ncc1C=C1C(=O)Nc2ccccc21` [Compound 39, 3-((5-ethoxycarbonyl-1H-pyrazol-4-yl)methylene)-2-oxindole], the inhibition at 10 µM was found to be 47.3%.

For the molecule `CCOC(=O)c1[nH]ncc1C=C1C(=O)Nc2ccc([N+](=O)[O-])cc21` [Compound 40, 3-((5-ethoxycarbonyl-1H-pyrazol-4-yl)methylene)-5-nitro-2-oxindole], the inhibition at 10 µM was determined as 92.3%.

With `Cn1cc(C=C2C(=O)Nc3ccccc32)cn1` [Compound 41, 3-((1-methyl-1H-pyrazol-4-yl)methylene)-2-oxindole], the inhibition at 10 µM was found to be 59.8%.

As for `Cc1n[nH]cc1C=C1C(=O)Nc2ccccc21` [Compound 43, 3-((3-methyl-1H-pyrazol-4-yl)methylene)-2-oxindole], the inhibition at 10 µM is 77.8%.

Regarding `COC(=O)CCn1cc(C=C2C(=O)Nc3ccccc32)cn1` [Compound 45, (E,Z)-3-(1-[2-(Methoxycarbonyl)ethyl]-1H-pyrazol-4-ylmethylidene)-2-oxindole], the inhibition at 10 µM came out at 29%.

With `Nc1ccc(CC2C(=O)Nc3ccccc32)cc1` (centres unmarked) [Compound 46, 3-(4-aminobenzyl)-2-oxindole], the inhibition at 10 µM was found to be 19.1%.

Turning to `Nc1ccc2c(c1)C(Cc1ccccn1)C(=O)N2` (centres unmarked) [Compound 47, 3-(pyridin-2-ylmethyl)-5-amino-2-oxindole], the inhibition at 10 µM turned out to be 26.9%.

With `COc1ccc2c(c1)C(O)(CC(=O)c1ccc(C)cc1)C(=O)N2` (centres unmarked) [Compound 48, 3-hydroxy-5-methoxy-3-[2-(4-methylphenyl)-2-oxoethyl]-2-oxindole], the inhibition at 10 µM was -50.3%.

As for `Cc1ccc(C(=O)CC2(O)C(=O)Nc3ccc(Br)cc32)cc1` (centres unmarked) [Compound 49, 3-hydroxy-5-bromo-3-[2-(4-methylphenyl)-2-oxoethyl]-2-oxindole], the inhibition at 10 µM is -85.2%.

With `Cc1ccc(C(=O)CC2(O)C(=O)Nc3ccc(NC(=O)c4ccco4)cc32)cc1` (centres unmarked) [Compound 51, 3-hydroxy-5-(2-furoylamino)-3-[2-(4-methylphenyl)-2-oxoethyl]-2-oxindole], the inhibition at 10 µM was determined as 25.6%.

Take `Cc1ccc(C(=O)CC2(O)C(=O)Nc3ccccc32)cc1` (centres unmarked) [Compound 52, 3-hydroxy-3-[2-(4-methylphenyl)-2-oxoethyl]-2-oxindole]: the inhibition at 10 µM was -92.9%.

Take `O=c1c(O)c(-c2ccc(O)c(O)c2)oc2cc(O)cc(O)c12` [Quercetin, reference compound]: the inhibition at 10 µM amounted to 98%.

The values are drawn from paper PMC9920986 (Molecules, 2023).
